Assay results: publication PMC5310672, “Crizotinib inhibits hyperpolarization-activated cyclic nucleotide-gated channel 4 activity” (Cardio-oncology, 2017)

Protein sequences, listed by entry. Tags and fused reporters are not part of them. Lines headed by an entry give the natural chain unless they say otherwise; changes in a name come on top.
UniProt Q9Y3Q4: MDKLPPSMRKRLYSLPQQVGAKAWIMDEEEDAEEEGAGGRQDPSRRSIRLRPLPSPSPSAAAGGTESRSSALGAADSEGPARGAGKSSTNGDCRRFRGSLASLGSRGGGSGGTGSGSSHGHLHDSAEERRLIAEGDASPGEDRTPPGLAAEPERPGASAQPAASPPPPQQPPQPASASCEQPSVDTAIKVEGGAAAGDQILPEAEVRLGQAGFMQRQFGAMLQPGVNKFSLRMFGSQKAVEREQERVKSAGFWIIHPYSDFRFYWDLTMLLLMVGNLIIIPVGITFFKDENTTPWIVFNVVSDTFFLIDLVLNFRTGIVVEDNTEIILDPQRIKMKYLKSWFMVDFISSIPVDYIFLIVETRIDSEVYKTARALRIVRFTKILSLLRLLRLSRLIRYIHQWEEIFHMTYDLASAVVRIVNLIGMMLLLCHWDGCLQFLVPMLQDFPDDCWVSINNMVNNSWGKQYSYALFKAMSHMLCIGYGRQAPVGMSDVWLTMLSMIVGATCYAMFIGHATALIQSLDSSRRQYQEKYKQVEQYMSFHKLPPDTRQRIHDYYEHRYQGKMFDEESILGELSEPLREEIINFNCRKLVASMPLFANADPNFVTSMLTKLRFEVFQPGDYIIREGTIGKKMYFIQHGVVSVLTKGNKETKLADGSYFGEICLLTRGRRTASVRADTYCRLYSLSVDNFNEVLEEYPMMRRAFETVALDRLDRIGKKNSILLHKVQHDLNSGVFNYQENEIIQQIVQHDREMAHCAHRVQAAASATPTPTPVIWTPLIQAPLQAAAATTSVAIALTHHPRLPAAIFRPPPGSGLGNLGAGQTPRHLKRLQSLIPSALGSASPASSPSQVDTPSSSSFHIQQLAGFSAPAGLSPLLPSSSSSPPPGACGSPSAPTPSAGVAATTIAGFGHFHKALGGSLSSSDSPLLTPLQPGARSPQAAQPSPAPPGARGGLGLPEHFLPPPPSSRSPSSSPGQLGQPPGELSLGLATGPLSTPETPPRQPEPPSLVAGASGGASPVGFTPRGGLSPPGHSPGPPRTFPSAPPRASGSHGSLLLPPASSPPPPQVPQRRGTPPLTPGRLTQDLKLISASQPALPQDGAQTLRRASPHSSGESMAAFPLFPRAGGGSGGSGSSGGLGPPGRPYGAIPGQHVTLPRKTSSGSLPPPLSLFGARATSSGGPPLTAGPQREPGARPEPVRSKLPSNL

Biological target: hyperpolarization-activated cyclic nucleotide-gated channel 4 (HCN4) (Homo sapiens, UniProt Q9Y3Q4)
Assay: cell-based

IC50: 1400 ± 300 nM
SMILES: C[C@@H](Oc1cc(-c2cnn(C3CCNCC3)c2)cnc1N)c1c(Cl)ccc(F)c1Cl [crizotinib]
